Experiments:
[1] = target: T1, human calcitonin (a) receptor in BHK570 cells (Homo sapiens, UniProt P30988); experiment: ASSAY (II)a functional assay, human calcitonin receptor (CRE luciferase); format: cell-based; conditions: read-out: hCTR funct. EC50
T1 construct: expressed in transfected cells
T1 sequence (P30988 25-474): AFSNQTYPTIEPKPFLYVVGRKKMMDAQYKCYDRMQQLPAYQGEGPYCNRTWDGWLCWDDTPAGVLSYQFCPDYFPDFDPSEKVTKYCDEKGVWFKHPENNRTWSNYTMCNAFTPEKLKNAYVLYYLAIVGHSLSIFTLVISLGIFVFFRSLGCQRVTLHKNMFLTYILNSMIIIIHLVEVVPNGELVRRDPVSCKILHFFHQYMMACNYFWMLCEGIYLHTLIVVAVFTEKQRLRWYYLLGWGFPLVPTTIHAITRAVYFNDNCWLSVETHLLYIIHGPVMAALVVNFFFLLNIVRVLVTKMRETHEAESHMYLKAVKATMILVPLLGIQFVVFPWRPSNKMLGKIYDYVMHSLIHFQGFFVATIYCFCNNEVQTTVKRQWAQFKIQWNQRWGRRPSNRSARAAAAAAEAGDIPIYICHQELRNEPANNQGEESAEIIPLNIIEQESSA
From the text: (§1) 1. Luciferase Assay Outline
(§2) Activation of calcitonin and amylin (coexpression of calcitonin receptor and receptor activity modifying proteins (RAMP)) receptors lead to increased intracellular concentrations of cAMP. Consequently, transcription is activated by promoters containing multiple copies of the cAMP response element (CRE). It is thus possible to measure amylin activity by the use of a CRE luciferase reporter gene introduced into BHK cells also expressing calcitonin or amylin receptors.
(§3) 2. Construction of Calcitonin (a)- and Amylin 3(a)-Receptor/CRE-Luc Cell Line.
(§4) The cell line was further transfected with RAMP-3, using standard methods. This turns the calcitonin receptor into an amylin 3(a) receptor. Methotrexate, Neomycin, and Hygromycin are selection markers for luciferase, the calcitonin receptor, and RAMP-3, respectively.
To perform activity assays, BHK calcitonin (a) receptor- or amylin 3(a)-receptor/CRE-luc cells were seeded in white 96 well culture plates at a density of about 20.000 cells/well. […] After incubation overnight at 37° C. and 5% CO2, the growth medium was replaced by 50 μl/well assay medium (DMEM (without phenol red), Glutamax™, 10% FBS, and 10 mM Hepes, pH 7.4). Further, 50 μl/well of standard or sample in assay buffer were added. […] Finally, luminescence was measured on a TopCounter (Packard) in SPC (single photon counting) mode.

Sequences of proteins named here, by UniProt entry; tags and fusion partners are left off. Residues count along the entry.
UniProt O60896, 24-148: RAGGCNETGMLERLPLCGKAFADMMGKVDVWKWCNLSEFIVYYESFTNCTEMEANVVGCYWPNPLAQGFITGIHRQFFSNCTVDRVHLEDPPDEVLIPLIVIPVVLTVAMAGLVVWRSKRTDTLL

[2] = target: T2, human calcitonin receptor (Homo sapiens, UniProt P30988); experiment: ASSAY (VII) binding to the human calcitonin receptor (SPA, 125I-Calcitonin); conditions: read-out: hCTR bind IC50;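 also: cell membranes (35 ng/µL) combined with SPA beads in 40 µL of pH 7.4 Hepes buffer, 384-well format, signal counted on a TopCounter instrument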
T2 construct: expressed in transfected cells
T2 sequence (P30988 25-474): T1 sequence (P30988 25-474)

[3] = target: T3, human amylin 3(a) receptor (human calcitonin receptor + RAMP-3) in BHK570 cells (Homo sapiens, UniProt O60896+P30988); experiment: ASSAY (II)a functional assay, human amylin receptor (CRE luciferase); format: cell-based; conditions: for EC50: human amylin receptor functional potency, assay (II), read-out: hAmylin-R funct. EC50
T3 construct: expressed in transfected cells
From the text: as §1, §2, §3, §4
To perform activity assays, BHK calcitonin (a) receptor- or amylin 3(a)-receptor/CRE-luc cells were seeded in white 96 well culture plates at a density of about 20.000 cells/well. […] After incubation overnight at 37° C. and 5% CO2, the growth medium was replaced by 50 μl/well assay medium (DMEM (without phenol red), Glutamax™, 10% FBS, and 10 mM Hepes, pH 7.4). Further, 50 μl/well of standard or sample in assay buffer were added. After 3 hours incubation at 37° C. and 5% CO2, the assay medium with standard or sample were removed and replaced by 100 μl/well PBS. Further, 100 μl/well LucLite™ was added. The plates were sealed and incubated at room temperature for 30 minutes. Finally, luminescence was measured on a TopCounter (Packard) in SPC (single photon counting) mode.

[4] = hCTR funct. EC50 divided by hAmylin-R funct. EC50
[5] = human functional selectivity: hCTR funct. EC50 / hAmylin-R funct. EC50

| EC50 [1] | IC50 [2] | Ratio hCT/hAmylin funct. [3, 4] | Ratio hCT/hAmylin funct. ([3]; hCTR funct. EC50 over hAmylin-R funct. EC50) | EC50 [3] | Ratio hCT/hAmylin funct. [3, 5] | Ratio hCT/hAmylin funct. ([3]; hCTR funct. EC50 / hAmylin-R funct. EC50) | Compound |
| --- | --- | --- | --- | --- | --- | --- | --- |
| 1.98 nM | 8.11 nM | 13.5 | 13.5 | 0.146 nM | 13.5 | – | CC[C@H](C)[C@H](NC(=O)[C@H](C)NC(=O)CNC(=O)[C@H](Cc1ccccc1)NC(=O)[C@H](CC(N)=O)NC(=O)[C@@H]1CCCN1C(=O)[C@H](CO)NC(=O)[C@H](CO)NC(=O)[C@H](Cc1c[nH]cn1)NC(=O)[C@H](CCCNC(=N)N)NC(=O)[C@H](CC(C)C)NC(=O)[C@H](Cc1ccccc1)NC(=O)[C@H](CC(N)=O)NC(=O)[C@H](C)NC(=O)[C@H](CC(C)C)NC(=O)[C@H](CCCNC(=N)N)NC(=O)[C@H](CCC(N)=O)NC(=O)[C@@H](NC(=O)[C@H](C)NC(=O)[C@@H]1CSSC[C@H](NC(=O)[C@@H](N)CCCCNC(=O)CCCCCCCCCCCCCCCCCCC(=O)O)C(=O)N[C@@H](CC(N)=O)C(=O)N[C@@H]([C@@H](C)O)C(=O)N[C@@H](C)C(=O)N[C@@H]([C@@H](C)O)C(=O)N1)[C@@H](C)O)C(=O)N1CCC[C@H]1C(=O)N[C@@H](CO)C(=O)N[C@@H](CO)C(=O)N[C@H](C(=O)N[C@@H](CC(N)=O)C(=O)N[C@H](C(=O)NCC(=O)N[C@@H](CO)C(=O)N[C@@H](CC(N)=O)C(=O)N[C@H](C(=O)N[C@@H](Cc1ccc(O)cc1)C(N)=O)[C@@H](C)O)C(C)C)[C@@H](C)O [Example 42] |
| 0.611 nM | 14.2 nM | 4.1 | – | 0.148 nM | 4.1 | 4.1 | CC[C@H](C)[C@H](NC(=O)[C@H](C)NC(=O)CNC(=O)[C@H](Cc1ccccc1)NC(=O)[C@H](CC(N)=O)NC(=O)[C@@H]1CCCN1C(=O)[C@H](CO)NC(=O)[C@H](CO)NC(=O)[C@H](Cc1c[nH]cn1)NC(=O)[C@H](CCCNC(=N)N)NC(=O)[C@H](CC(C)C)NC(=O)[C@H](Cc1ccccc1)NC(=O)[C@H](CC(N)=O)NC(=O)[C@H](C)NC(=O)[C@H](CC(C)C)NC(=O)[C@H](CCCNC(=N)N)NC(=O)[C@H](CCC(N)=O)NC(=O)[C@@H](NC(=O)[C@H](C)NC(=O)[C@@H]1CSSC[C@H](NC(=O)[C@H](CCCCN)NC(=O)CC[C@H](NC(=O)CCCCCCCCCCCCCCCCCCC(=O)O)C(=O)O)C(=O)N[C@@H](CC(N)=O)C(=O)N[C@@H]([C@@H](C)O)C(=O)N[C@@H](C)C(=O)N[C@@H]([C@@H](C)O)C(=O)N1)[C@@H](C)O)C(=O)N1CCC[C@H]1C(=O)N[C@@H](CO)C(=O)N[C@@H](CO)C(=O)N[C@H](C(=O)N[C@@H](CC(N)=O)C(=O)N[C@H](C(=O)NCC(=O)N[C@@H](CO)C(=O)N[C@@H](CC(N)=O)C(=O)N[C@H](C(=O)N[C@@H](Cc1ccc(O)cc1)C(N)=O)[C@@H](C)O)C(C)C)[C@@H](C)O [Example 21] |
